Patent US20080227710A1, “Use of Conjugates of Doxorubicin with Lactosaminated Albumin” (priority 2005, published 2008)

Columns and labels:
[1] = DOXO concentrations in HCCs, heart and intestine of rats with DENA-induced HCCs; conditions: rat, in vivo
Excerpt: For each compound four rats were used.

[2] = rat, in vivo
[3] = Distribution of L-[14C]HSA and L-[14C]HSA-DOXO (radioactivity count) in HCCs, heart and intestine of rats with DENA-induced HCCs; conditions: for Distribution, dpm/g/SA, Heart / Distribution, dpm/g/SA, Intestine / Distribution, dpm/g/SA, MD HCCs / Distribution, dpm/g/SA, PD HCCs / Distribution, dpm/g/SA, WD HCCs: rats killed 4 h after i.v. injection, mean ± standard error; for Distribution, dpm/g/SA, MD HCCs: moderately differentiated HCCs; for Distribution, dpm/g/SA, PD HCCs: poorly differentiated HCCs; for Distribution, dpm/g/SA, WD HCCs: well differentiated HCCs
ASGP-R = biological target: T1, ASGP-R (Rattus norvegicus, UniProt P02706+P08290); conditions: DENA rats, cited from earlier work
T1 construct: the ability of the tumors to internalize L-HSA through the ASGP-R; host or cells: DENA-induced hepatocellular carcinomas in living rats (endogenous receptor of the tumor tissue)
T1 sequence (P02706 1-284): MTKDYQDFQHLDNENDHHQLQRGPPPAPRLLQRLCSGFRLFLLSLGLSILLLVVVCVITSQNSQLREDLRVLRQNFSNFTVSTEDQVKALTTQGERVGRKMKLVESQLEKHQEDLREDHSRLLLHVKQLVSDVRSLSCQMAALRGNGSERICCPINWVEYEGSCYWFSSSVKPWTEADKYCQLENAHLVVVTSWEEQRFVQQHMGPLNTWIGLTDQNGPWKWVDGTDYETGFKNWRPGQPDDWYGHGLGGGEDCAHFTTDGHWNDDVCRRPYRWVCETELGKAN
T1 sequence (P08290 1-301): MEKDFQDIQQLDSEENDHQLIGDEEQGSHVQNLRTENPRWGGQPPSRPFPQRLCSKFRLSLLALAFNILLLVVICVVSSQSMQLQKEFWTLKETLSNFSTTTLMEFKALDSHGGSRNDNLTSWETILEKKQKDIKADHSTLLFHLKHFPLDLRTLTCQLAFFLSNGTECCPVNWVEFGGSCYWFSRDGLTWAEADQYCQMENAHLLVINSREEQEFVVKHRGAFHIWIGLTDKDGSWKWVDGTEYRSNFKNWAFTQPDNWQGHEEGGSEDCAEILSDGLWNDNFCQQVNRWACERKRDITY

Substance | DOXO concentration in HCCs relative to heart [1] | DOXO concentration in HCCs relative to intestine [1] | DOXO concentration in all forms of HCCs relative to intestine and heart [1] | Uptake in all seven examined PD HCCs relative to heart and intestine [2] | Distribution, dpm/g/SA, Heart [3] [dpm/g/SA] | Distribution, dpm/g/SA, Intestine [3] [dpm/g/SA] | Distribution, dpm/g/SA, MD HCCs [3] [dpm/g/SA] | Distribution, dpm/g/SA, PD HCCs [3] [dpm/g/SA] | Distribution, dpm/g/SA, WD HCCs [3] [dpm/g/SA] | Concentration in four out of six examined PD HCCs, not higher than in heart and intestine ([3]; four out of six PD HCCs, 4 h after i.v. injection 22.5 μg/g) [dpm/g/SA] | MD HCCs able to internalize L-HSA through the ASGP-R (ASGP-R; moderately differentiated HCCs) | PD HCCs with a low capacity to take up L-HSA (ASGP-R; poorly differentiated HCCs) | WD HCCs able to internalize L-HSA through the ASGP-R (ASGP-R; well differentiated HCCs)
L-[^14C]HSA-DOXO | more than eight | five times higher | 5-8 fold | at least seven times higher | 9.0 ± 0.8 | 9.8 ± 0.8 | 135.5 ± 19.3 | 124.8 ± 20.2 | 180.9 ± 27.8 |  |  |  | 
L-[^14C]HSA: lactosaminated human albumin, a galactosyl terminating neoglycoprotein, labeled with [14C]sucrose; hepatotropic drug carrier |  |  |  |  | 8.7 ± 0.9 | 8.9 ± 1.5 | 85.6 ± 4.4 | 32.6 ± 14.9 | 178.3 ± 12.4 | 9.1±0.1 | 4 out of 5 | 2 out of 5 | all the 7
